Experimental data published in publication PMC9992173, “Mapping of the extracellular RBP4 ligand binding domain on the RBPR2 receptor for Vitamin A transport” (Frontiers in Cell and Developmental Biology, 2023).

Key:
Settings in all cases: scale: % decreased activity compared to WT-RBPR2
[1] = molecular target: V5-tagged RBPR2 Leu296Ser mutant (mouse) (UniProt Q9DBN1)
[2] = molecular target: V5-tagged RBPR2 Tyr295Pro mutant (mouse) (UniProt Q9DBN1)
[3] = molecular target: V5-tagged RBPR2 Ser294Ala mutant (mouse) (UniProt Q9DBN1)

Measured: uptake of extracellular [3H]ROL-RBP4 at 60 min by stable NIH3T3/LRAT cells, liquid scintillation counting

purified T7 tagged human RBP4 (from UniProt P02753 19-194) (ligand)
< 81: all assays above
